Results as given in patent publication US5932555A, “Terpenoid compound 0406TP-1” (priority 1997, dated 1999).

Tested on: CDF1 mice
Assay: Repeated administration toxicity test (intraperitoneal)
Format: in vivo, mouse (CDF1)
Conditions: for Number of survived animals, Day 4 / Number of survived animals, Day 5 / Number of survived animals, Day 6 / Number of survived animals, Day 7 / Number of survived animals, Day 8 / Number of survived animals, Day 10: of 10
Experimental: As the comparative control, test solutions of adriamycin were prepared in the same manner. […] The number with time of survived animals after administration and the average body weights on Days 0, 5, and 10 were determined.

## COC(CC1C(C)=CCC2C1(C)CCC1C(C)(C)C(O)C(OC3OC(C)C(OC(=O)c4cccc(O)c4)C(OC4OC(CO)C(O)C(O)C4NC(C)=O)C3O)CC12C)C(N)C(=O)O (stereo not drawn) [0406TP-1]
1 mg/kg/day i.p. × 10 days
  Number of survived animals, Day 4: 10
  Number of survived animals, Day 5: 10
  Number of survived animals, Day 6: 10
  Number of survived animals, Day 7: 10
  Number of survived animals, Day 8: 10
  Number of survived animals, Day 10: 10
5 mg/kg/day i.p. × 10 days
  Number of survived animals, Day 4: 10
  Number of survived animals, Day 5: 10
  Number of survived animals, Day 6: 10
  Number of survived animals, Day 7: 10
  Number of survived animals, Day 8: 10
  Number of survived animals, Day 10: 10
10 mg/kg/day i.p. × 10 days
  Number of survived animals, Day 4: 10
  Number of survived animals, Day 5: 10
  Number of survived animals, Day 6: 10
  Number of survived animals, Day 7: 10
  Number of survived animals, Day 8: 10
  Number of survived animals, Day 10: 10
i.p. 10 days, in words
  survival in repeated administration: survived
i.p. 10 days, in words, vs control
  growth / body weight in repeated administration: normal increase in body weight
Repeated administration, in words
  toxicity and safety: low toxicity
